# Apparent affinities of Ab-91 variants for a coronavirus HR2 peptide

Data: MIT Lincoln Laboratory AlphaSeq set, Engelhart et al. 2022, doi:10.1038/s41597-022-01779-4, as distributed in FLAb.

The target is the same throughout: PDVDLGDISGINAS, from the HR2 region of SARS-CoV-2 spike.

Each scFv is VL, the linker GGGGSGGGGSGGGGS, VH, as in the parent Ab-91, and differs from it in the CDRs of the heavy chain only.
VL: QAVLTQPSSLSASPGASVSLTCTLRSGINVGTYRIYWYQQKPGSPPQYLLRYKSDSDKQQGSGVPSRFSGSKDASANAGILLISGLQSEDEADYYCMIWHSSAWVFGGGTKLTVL
VH: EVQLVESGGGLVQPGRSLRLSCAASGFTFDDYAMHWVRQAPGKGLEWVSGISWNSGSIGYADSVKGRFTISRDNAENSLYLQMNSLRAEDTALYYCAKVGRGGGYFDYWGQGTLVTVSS

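The starting antibody came from a phage panning campaign against this peptide. AAYL51 was designed without a model: most single CDR substitutions and a random sample of double and triple ones. Affinity was read by AlphaSeq, a pooled yeast mating assay with surface-displayed partners. Pairs that bind mate more often; barcode pairs of the diploids are counted by sequencing. The ratio of observed to expected reads was calibrated, replicate by replicate, on BCL2-family standards whose Kd was known from biolayer interferometry. The assay was run in three technical replicates.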

Substitutions are numbered in sequence along the VH above, starting at 1 (not Kabat). Every variant below is changed at G59 of the VH (sequential numbering). Kd is apparent (estimated from mating counts) and averaged on the log scale over replicates with a signal. Smaller is tighter. "nd" marks a missing value. The strain was present, yet no cells mated with the target were sequenced in any replicate, which points to weak or no binding. Nonspecific signal, from three strains lacking the peptide, appeared in 21% of pairings of library AAYL51, centred on 34 µM (5% of these signals below 1.8 µM); values are not corrected for it. In this assay the parent's reference entry averaged 72 nM; its copy inside this library read 7.5 nM.

For G59H+G102D, the assay gave 34 µM (3 of 3 replicates).
For G59R+Y60P+G102R, the assay gave 270 µM (1 of 3 replicates).
For G59E+Y108F, the assay gave 47 µM (2 of 3 replicates).
For G59L+V64N+Y108G, the assay gave 240 µM (2 of 3 replicates).
For Y32K+S52P+G59Q, the assay gave nd (0 of 3 replicates).
For G56T+G59M+Y108T, the assay gave nd (0 of 3 replicates).
For A33P+G59V+S63I, the assay gave nd (0 of 3 replicates).
For F27T+G59I+G103N, the assay gave 6.5 µM (1 of 3 replicates).
For F29M+G59T+G102I, the assay gave nd (0 of 3 replicates).
For G50T+G59D+D62K, the assay gave nd (0 of 3 replicates).
For I51C+S52I+G59Q, the assay gave 76 µM (1 of 3 replicates).
For H35V+G59C+S63T, the assay gave 250 µM (1 of 3 replicates).
For F27V+M34A+G59F, the assay gave 81 µM (1 of 3 replicates).
For G59Y+G100W+D107R, the assay gave 12 µM (1 of 3 replicates).
For A33L+G59S+G102Q, the assay gave 44 µM (2 of 3 replicates).
For I51K+G59P+F106S, the assay gave nd (0 of 3 replicates).
For G59V+D62L+K65P, the assay gave nd (0 of 3 replicates).
For Y32G+G59D+S63I, the assay gave 160 µM (1 of 3 replicates).
For G26Y+G59I+G103V, the assay gave nd (0 of 3 replicates).
For D30H+G59H+D107G, the assay gave 26 µM (1 of 3 replicates).
For G59D, the assay gave nd (0 of 3 replicates).
For T28W+G59Q, the assay gave 43 µM (2 of 3 replicates).
For G26A+G59A+D62C, the assay gave nd (0 of 3 replicates).
For G59H+D107W, the assay gave 16 µM (1 of 3 replicates).
For W53V+G59Q, the assay gave 530 nM (1 of 3 replicates).
For N54H+S57L+G59K, the assay gave 3.8 µM (1 of 3 replicates).
For G59I+S63V+G104Q, the assay gave 100 µM (1 of 3 replicates).
For S55T+G59F+S63A, the assay gave 550 µM (2 of 3 replicates).
For S55E+G59A, the assay gave nd (0 of 3 replicates).
For G59M+A61K+G102Q, the assay gave nd (0 of 3 replicates).
For Y32W+S52P+G59Y, the assay gave 160 µM (1 of 3 replicates).
For Y32N+G59Q, the assay gave 17 µM (1 of 3 replicates).
For H35R+G59I+Y108N, the assay gave 97 µM (1 of 3 replicates).
For S57W+I58F+G59P, the assay gave nd (0 of 3 replicates).
For G26F+S55E+G59C, the assay gave 1.0 µM (1 of 3 replicates).
For G59R+Y60F+S63K, the assay gave nd (0 of 3 replicates).
For H35C+S55P+G59F, the assay gave nd (0 of 3 replicates).
For G59C+D62M+V99M, the assay gave nd (0 of 3 replicates).
For D30T+M34D+G59T, the assay gave nd (0 of 3 replicates).
For N54V+G59T+V99I, the assay gave nd (0 of 3 replicates).
For G26W+G59H+V99T, the assay gave 26 µM (1 of 3 replicates).
For G56A+G59F+Y105P, the assay gave nd (0 of 3 replicates).
For I51K+G59M+F106R, the assay gave 69 µM (1 of 3 replicates).
For W53R+G59Y+G103L, the assay gave nd (0 of 3 replicates).